Assay results reported in ChEMBL document CHEMBL3352078, “Repurposing human PDE4 inhibitors for neglected tropical diseases: design, synthesis and evaluation of cilomilast analogues as Trypanosoma brucei PDEB1 inhibitors” (Bioorg Med Chem Lett, 2014).
pIC50: −log10 of the molar value.

Target: T1, Class 1 phosphodiesterase PDEB1 (Trypanosoma brucei, UniProt Q8WQX9)
T1 sequence (Q8WQX9 whole entry): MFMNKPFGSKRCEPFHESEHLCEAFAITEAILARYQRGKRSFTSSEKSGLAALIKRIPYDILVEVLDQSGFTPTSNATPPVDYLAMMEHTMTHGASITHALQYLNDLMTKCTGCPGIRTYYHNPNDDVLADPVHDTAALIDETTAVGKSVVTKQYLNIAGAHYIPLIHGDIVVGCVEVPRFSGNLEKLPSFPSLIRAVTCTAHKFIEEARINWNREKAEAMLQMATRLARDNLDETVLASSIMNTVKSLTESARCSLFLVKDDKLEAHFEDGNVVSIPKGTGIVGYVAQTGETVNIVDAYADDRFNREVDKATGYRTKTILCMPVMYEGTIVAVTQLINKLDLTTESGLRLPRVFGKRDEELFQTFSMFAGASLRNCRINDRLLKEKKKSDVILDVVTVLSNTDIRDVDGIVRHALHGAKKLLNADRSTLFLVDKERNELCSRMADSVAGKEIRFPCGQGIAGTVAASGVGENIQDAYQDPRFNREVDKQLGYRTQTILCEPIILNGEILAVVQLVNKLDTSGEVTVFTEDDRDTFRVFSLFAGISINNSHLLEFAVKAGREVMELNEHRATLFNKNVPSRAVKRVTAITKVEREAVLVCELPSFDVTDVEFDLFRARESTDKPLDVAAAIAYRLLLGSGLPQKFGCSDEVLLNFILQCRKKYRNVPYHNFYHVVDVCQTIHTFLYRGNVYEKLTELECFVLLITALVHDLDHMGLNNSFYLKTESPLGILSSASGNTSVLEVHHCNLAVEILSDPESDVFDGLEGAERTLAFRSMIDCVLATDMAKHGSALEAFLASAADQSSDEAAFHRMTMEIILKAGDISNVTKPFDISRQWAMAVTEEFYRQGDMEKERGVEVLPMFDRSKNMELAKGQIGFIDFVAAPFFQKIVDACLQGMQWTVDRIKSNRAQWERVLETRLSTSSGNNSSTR
Assay: Inhibition of Trypanosoma brucei recombinant PDEB1 pre-incubated for 5 mins prior to substrate addition

With `COc1ccc([C@]2(C#N)CC[C@@H](C(=O)O)CC2)cc1OCCCCOc1ccccc1` the pIC50 was 6.02.
